Reference: ChEMBL document CHEMBL3352658 (Eur J Med Chem, 2014)

The chains behind the UniProt entries cited, without tags or fusion partners.
UniProt P01375, whole entry: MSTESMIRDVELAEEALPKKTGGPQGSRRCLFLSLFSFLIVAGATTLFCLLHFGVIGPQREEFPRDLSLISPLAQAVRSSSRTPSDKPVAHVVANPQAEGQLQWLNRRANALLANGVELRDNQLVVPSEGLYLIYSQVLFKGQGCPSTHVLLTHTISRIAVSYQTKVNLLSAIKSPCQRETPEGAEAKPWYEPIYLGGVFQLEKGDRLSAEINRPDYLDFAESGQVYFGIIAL

Molecular target: Tumor necrosis factor (Homo sapiens, UniProt P01375)
Assay: Inhibition of recombinant human TNFalpha binding to TNF receptor 1-ECD at 100 uM by surface plasmon resonance-based in vitro competitive binding assay

## O=C(O)CCCNS(=O)(=O)c1ccc2c3c(cccc13)C(=O)N2
  inhibition: 16%
